Results taken from PubChem BioAssay AID434979 (Johns Hopkins Ion Channel Center, 2010).
Only a part is listed here, and it is no random draw. Activity calls are given as the source filed them.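 Rule for the calls: active = signal rise over 3 SD above mean of control wells given weak agonist, in both repeats and first screen; inactive = the rest.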

System: TRPC4 (mouse), co-expressed with 5HT1a in HEK293
Assay: enhancement of serotonin-evoked TRPC4 response – cell-based, second counter screen, HEK293 TRPC4/5HT1a, Fluo-4, counter-screen for TRPC4 potentiator project, confirmation (AID 434979)
Details: Fluo-4 calcium flux, at 10 µM, active compounds read high, serotonin added at its EC20 dose

| Compound | potentiation |
| --- | --- |
| CN(C)C1(CNC(=O)c2ccc(Cl)c(S(N)(=O)=O)c2)CCCCC1 | inactive: 0% |
